The record followed here is patent publication US20190367516A1 (Bayer Pharma Aktiengesellschaft, priority 2015, published 2019).

Protein sequences, listed by entry. Tags and fused reporters are not part of them.
UniProt P08172, whole entry: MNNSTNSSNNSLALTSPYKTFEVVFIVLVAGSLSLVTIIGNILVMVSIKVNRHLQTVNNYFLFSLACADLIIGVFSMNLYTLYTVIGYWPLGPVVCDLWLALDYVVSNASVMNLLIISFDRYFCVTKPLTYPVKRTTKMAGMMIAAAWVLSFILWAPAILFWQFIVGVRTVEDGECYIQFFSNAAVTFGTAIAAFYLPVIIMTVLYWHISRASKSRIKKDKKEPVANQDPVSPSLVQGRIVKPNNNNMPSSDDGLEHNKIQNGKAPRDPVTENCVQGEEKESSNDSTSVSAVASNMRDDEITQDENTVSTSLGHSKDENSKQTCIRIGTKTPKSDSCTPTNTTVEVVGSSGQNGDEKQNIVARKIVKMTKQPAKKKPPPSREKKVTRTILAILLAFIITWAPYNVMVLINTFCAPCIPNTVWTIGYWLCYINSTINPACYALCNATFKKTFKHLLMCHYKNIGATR

Each structure is given as a SMILES string. Where two headings read alike, the source gives them in different places.

This experiment concerns the target human M2 receptor (Homo sapiens, UniProt P08172).
The mark [1] stands for this setting: Receptor activity EC50, M2-GIRK1/4 activation test, acetylcholine at EC20, allosteric potency, in some cases mean values from two or more determinations.

Under setting [1], `CC[C@@H](NC(=O)c1cn(-c2c(F)cccc2F)c2nc(N3CCC(C)(O)C3)ccc2c1=O)C(F)(F)F` (single isomer, unassigned) [Example 278] had an EC50 of 77 nM.

As to `CN(C)c1ccc2c(=O)c(C(=O)NCc3c(Cl)cccc3C(F)(F)F)cn(-c3ccc(F)cc3F)c2n1` [Example 58, N-[2-Chloro-6-(trifluoromethyl)benzyl]-1-(2,4-difluorophenyl)-7-(dimethylamino)-4-oxo-1,4-dihydro-l,8-naphthyridine-3-carboxamide], the EC50 under setting [1] amounted to 77 nM.

On to `CC[C@H](NC(=O)c1cn(-c2c(F)cc(F)cc2F)c2nc(N3CCN(CCO)C3=O)ccc2c1=O)C(F)(F)F` [Example 362, 7-[3-(2-Hydroxyethyl)-2-oxoimidazolidin-1-yl]-4-oxo-N-[(2S)-1,1,1-trifluorobutan-2-yl]-1-(2,4,6-trifluorophenyl)-1,4-dihydro-1,8-naphthyridine-3-carboxamide], for which the response under setting [1] was half-maximal at 77 nM (EC50).

For `O=C(N[C@H](C1CC1)C(F)(F)F)c1cn(-c2c(Cl)cc(F)cc2Cl)c2nc(N3CCNC3=O)ccc2c1=O` [Example 647, N-[(1R)-1-Cyclopropyl-2,2,2-trifluoroethyl]-1-(2,6-dichloro-4-fluorophenyl)-4-oxo-7-(2-oxoimidazolidin-1-yl)-1,4-dihydro-1,8-naphthyridine-3-carboxamide], it took 77 nM to reach a half-maximal effect (Receptor activity EC50, allosteric potency at EC20 acetylcholine, M2-GIRK1/4 reporter cells, in some cases mean of two or more determinations) (EC50).

For the compound `O=C(NC12CC3CC(CC(C3)C1)C2)c1cn(-c2ccc(F)cc2F)c2nc(N3CCC[C@@H]3CO)ccc2c1=O` (racemic) [Example 127, rac-1-(2,4-Difluorophenyl)-7-[2-(hydroxymethyl)pyrrolidin-1-yl]-4-oxo-N-(tricyclo[3.3.1.1^3,7]dec-1-yl)-1,4-dihydro-1,8-naphthyridine-3-carboxamide], under setting [1], the EC50 amounted to 77 nM.

As a reminder, the EC50 is the concentration needed to bring the measured effect to its halfway point. A low value points to a more potent agent.
